Results from patent US7253211B2, “(R)-chiral halogenated substituted fused heterocyclic amino compounds useful for inhibiting cholesterol ester transfer protein activity” (Pfizer Inc., priority 1999, dated 2007).
pIC50: −log10 of the molar value.

How the values were obtained:
CETP [1] = target: T1, CETP (Homo sapiens, UniProt P11597); assay: Assay of CETP Inhibition in Human Plasma; format: biochemical; set-up: Blood was obtained from healthy volunteers; from tissue; host or cells: human EDTA plasma pool from healthy volunteers; details: human EDTA plasma pool, [3H]CE-HDL, 37° C., 4 hours
T1 sequence (P11597 18-493): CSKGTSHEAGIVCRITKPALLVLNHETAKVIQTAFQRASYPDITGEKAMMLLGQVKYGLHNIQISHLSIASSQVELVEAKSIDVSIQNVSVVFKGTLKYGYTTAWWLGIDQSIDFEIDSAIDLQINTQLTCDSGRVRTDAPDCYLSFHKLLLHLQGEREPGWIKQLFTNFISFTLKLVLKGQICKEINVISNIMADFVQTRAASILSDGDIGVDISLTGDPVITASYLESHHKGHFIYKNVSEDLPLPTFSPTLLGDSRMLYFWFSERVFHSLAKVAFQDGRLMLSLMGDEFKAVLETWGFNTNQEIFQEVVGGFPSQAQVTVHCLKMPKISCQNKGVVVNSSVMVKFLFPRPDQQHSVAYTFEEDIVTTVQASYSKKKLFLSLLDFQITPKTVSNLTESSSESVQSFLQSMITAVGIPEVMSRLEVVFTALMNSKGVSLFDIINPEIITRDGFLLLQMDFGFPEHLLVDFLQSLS
Description: Assay of CETP Inhibition in Human Plasma
Blood was obtained from healthy volunteers, recruited from the personnel of Monsanto Company, Saint Louis, Mo. Blood was collected in tubes containing EDTA (EDTA plasma pool). The EDTA human plasma pool, previously stored at −20° C., was thawed at room temperature and centrifuged for 5 minutes to remove any particulate matter. […] Equal volumes (396 μL) of the plasma containing the [^3H]CE-HDL were added by pipette into micro tubes (Titertube®, Bio-Rad laboratories, Hercules, Calif.). Inhibitor compounds, dissolved as 20-50 mM stock solutions in DMSO, were serially diluted in DMSO (or an alternative solvent in some cases, such as dimethylformamide or ethanol). Four μL of each of the serial dilutions of inhibitor compounds or DMSO alone were then added to each of the tubes containing plasma (396 μL). After mixing, triplicate aliquots (100 μL) from each plasma tube were then transferred to wells of 96-well round-bottomed polystyrene microtiter plates (Corning, Corning, N.Y.). Plates were sealed with plastic film and incubated at 37° C. for 4 hours. “Test” samples contained plasma with dilutions of inhibitor compounds. “Control” samples contained plasma with DMSO diluted to the same concentration as the test samples, but without inhibitor. “Blank” samples were prepared as “control” samples, but were left in the micro tubes at 4° C. for the 4 hour incubation and were then added to the microtiter wells at the end of the incubation period. VLDL and LDL were precipitated by the addition of 10 μL of precipitating reagent (1% (w/v) dextran sulfate (Dextralip50)/0.5 M magnesium chloride, pH 7.4) to all wells. The wells were mixed on a plate mixer and then incubated at ambient temperature for 10 min. The plates were then centrifuged at 1000×g for 30 min at 10° C. The supernatants (50 μL) from each well were then transferred to Picoplate™ 96 plate wells (Packard, Meriden, Conn.) containing Microscint™-40 (Packard, Meriden, Conn.). The plates were heat-sealed (TopSeal™-P, Packard, Meriden, Conn.) according to the manufacturer's directions and mixed for 30 min. Radioactivity was measured on a microplate scintillation counter (TopCount, Packard, Meriden, Conn.). The maximum percentage transfer in the control wells (% transfer) was determined using the following equation:
[formula] The percentage of transfer relative to the control (% control) was determined in the wells containing inhibitor compounds was determined as follows:
[formula] IC50 values were then calculated from plots of % control versus concentration of inhibitor compound.

CETP [2] = target: T1, CETP; assay: Assay of CETP Inhibition Using Purified Components (Reconstituted Buffer Assay); format: biochemical; set-up: made in house; host or cells: CHO cells (serum-free conditioned medium)
Description: Assay of CETP Inhibition Using Purified Components (Reconstituted Buffer Assay)
The ability of compounds to inhibit CETP activity was assessed using an in vitro assay that measured the rate of transfer of radiolabeled cholesteryl ester ([^3H]CE) from HDL donor particles to LDL acceptor particles. Details of the assay are provided by Glenn, K. C. et al. (Glenn and Melton, “Quantification of Cholesteryl Ester Transfer Protein (CETP): A) CETP Activity and B) Immunochemical Assay of CETP Protein,” Meth. […] To measure CETP activity, [^3H]CE-labeled-HDL, LDL, CETP and assay buffer (50 mM tris(hydroxymethyl)aminomethane, pH 7.4; 150 mM sodium chloride; 2 mM ethylenediamine-tetraacetic acid (EDTA); 1% bovine serum albumin) were incubated in a final volume of 200 μL, for 2 hours at 37° C. in 96 well plates. […] The inhibitors were then diluted 1:1 with CETP in assay buffer, and then 25 μL of that solution was mixed with 175 μL of lipoprotein pool for assay. Following incubation, LDL was differentially precipitated by the addition of 50 μL of 1% (w/v) dextan sulfate/0.5 M magnesium chloride, mixed by vortex, and incubated at room temperature for 10 minutes. A potion of the solution (200 μL) was transferred to a filter plate (Millipore). After filtration, the radioactivity present in the precipitated LDL was measured by liquid scintillation counting.
This value was defined as the IC50.

| Structure (SMILES) | pIC50 (CETP [1]) | pIC50 (CETP [2]) |
| --- | --- | --- |
| OC(CN(Cc1cccc(OC(F)(F)C(F)F)c1)c1cccc(Oc2ccccc2)c1)C(F)(F)F [Example 1, (2R,S)-3-[(3-phenoxyphenyl)[[3-(1,1,2,2-tetrafluoroethoxy)phenyl]-methyl]amino]-1,1,1-trifluoro-2-propanol] | 5.25 | – |
| O[C@H](CN(Cc1cccc(OC(F)(F)C(F)F)c1)c1cccc(Oc2ccccc2)c1)C(F)(F)F [Example 2, (2R)-3-[(3-phenoxyphenyl)[[3-(1,1,2,2-tetrafluoroethoxy)phenyl]methyl]amino]-1,1,1-trifluoro-2-propanol] | 6.19 | 7.85 |
| O[C@@H](CN(Cc1cccc(OC(F)(F)C(F)F)c1)c1cccc(Oc2ccccc2)c1)C(F)(F)F [Example 3, (2S)-3-[(3-phenoxyphenyl)[[3-(1,1,2,2-tetrafluoroethoxy)-phenyl]methyl]amino]-1,1,1-trifluoro-2-propanol] | 4.70 | 6.12 |
| CCc1cc(Oc2cccc(N(Cc3cccc(OC(F)(F)C(F)F)c3)C[C@@H](O)C(F)(F)F)c2)ccc1Cl [Example 8, (2R)-3-[[3-(4-chloro-3-ethylphenoxy)phenyl][[3-(1,1,2,2-tetrafluoro-ethoxy)phenyl]methyl]amino]-1,1,1-trifluoro-2-propanol] | 7.31 | 9.10 |
| CC(C)c1cccc(Oc2cccc(N(Cc3cccc(OC(F)(F)C(F)F)c3)C[C@@H](O)C(F)(F)F)c2)c1 [Example 10] | 6.96 | 7.92 |
| CCc1cccc(Oc2cccc(N(Cc3cccc(OC(F)(F)C(F)F)c3)C[C@@H](O)C(F)(F)F)c2)c1 [Example 11] | 7.14 | 9.00 |
| O[C@H](CN(Cc1cccc(OC(F)(F)C(F)F)c1)c1cccc(Oc2cccc(OC(F)(F)F)c2)c1)C(F)(F)F [Example 19, (2R)-3-[[3-(3-trifluoromethoxyphenoxy)phenyl][[3-(1,1,2,2-tetrafluoroethoxy)phenyl]methyl]amino]-1,1,1-trifluoro-2-propanol] | 6.72 | 8.40 |
| O[C@H](CN(Cc1cccc(OC(F)(F)C(F)F)c1)c1cccc(OCc2cccc(OC(F)(F)F)c2)c1)C(F)(F)F [Example 22] | 6.85 | 7.57 |
